Results from US9809822B2, “Triptolide derivatives and preparation method and use thereof” (priority 2013, dated 2017).

Assay: Distribution of triptolide / triptolide-nucleolin aptamer conjugate within tissues by HPLC, BxPC-3 xenograft tumor-bearing mice
Conditions: female, nude, mouse, in vivo, 24 h
Text: BxPC-3 cells in logarithmic growth phase were used.
Samples A and B in 2.2.2 were used.

In the case of `CC(C)[C@]12O[C@H]1[C@@H]1O[C@]13[C@]1(O[C@H]1C[C@H]1C4=C(CC[C@@]13C)C(=O)OC4)[C@@H]2O` [Triptolide], the TP concentration is reported as 16.4 ng/mL.
